From patent US20040106673A1, “Compositions and methods for inhibiting proliferation in human prostate cancer cells” (priority 2002, published 2004)

Legend:
LNCaP tumors [1] = test: Mitotic cells and caspase 3 (active form) immunostaining in LNCaP tumors from treated mice; assay type: in vivo, male NCr mice; conditions: mice treated for 46 days
Protocol: Tumor size and body weight were measured daily.
Tumor sections used were stained by the horseradish peroxidase-conjugated-avidin method. Endogenous peroxidase was blocked by incubating the tissue sections in 3% hydrogen peroxide in methanol for 30 minutes at room temperature. Sections were then treated with 0.01 M sodium citrate buffer (pH 6.0) in a microwave oven at high temperature for 10 minutes. The sections were incubated with a protein block (normal goat serum) for 10 minutes, followed by avidin D for 15 minutes and biotin blocking solution for 15 minutes at room temperature. The sections were incubated with caspase 3 primary antibody (1:2000 dilution) for 30 minutes at room temperature followed by incubation with a biotinylated anti-rabbit secondary antibody for 30 minutes and incubation with conjugated-avidin solution for 30 minutes. Color development was achieved by incubation with 0.02% 3,3′-diaminobenzidine tetrahydrochloride containing 0.02% hydrogen peroxide for 10 minutes at room temperature. The slides were then counterstained with hematoxylin, dehydrated and coverslips were added for permanent mounting. A positive reaction was shown as a light brown to dark brown precipitate in the cytoplasm and/or perinuclei of the cells.

LNCaP tumors [2] = test: Second in vivo study: TPA, ATRA or both i.p. in NCr mice with LNCaP tumors, 21 or 46 days; conditions: 21 days, once a day i.p.; TPA 0.16 nmol/g, ATRA 0.5 nmol/g
Protocol: Tumor cell growth was measured and expressed as percent of initial size (FIG. 3). […] In this table, mice in Group A (13 mice/group) were treated for 21 days, while mice in Group B (6 mice/group) were a subset of the original group and were treated for an additional 25 days.
The effect of the 21 day treatments on body weight was examined in order to determine if there was the same level of toxicity seen in the first animal study.
The results from the Group B animals were analyzed separately.
Male Ncr immunodeficient mice (6 to 7 weeks old) were obtained from Taco Farms (Germantown, N.Y.). The animals were housed in sterile filter-capped microisolator cages and provided with sterilized food and water. Prostate cancer cells (2×10^6 cells/0.1 ml/mouse) suspended in 50% matrigel (Collaborative Research, Bedford, Mass.) in RPMI 1640 medium were injected subcutaneously into the right flank of the mice. After 4 to 6 weeks, mice with well-established tumors (0.65 to 1 cm by 0.65 to 1 cm) were used for the various experiments. In all experiments, animals received the same volume of injections (5 μl/g body weight). Tumor size and body weight were measured daily. At the end of a study, mice were sacrificed by decapitation, tumors were excised, weighed, and placed in phosphate-buffered formalin for 48 hr at room temperature and then placed in ethanol for 48 hr before preparing paraffin sections.

**Q.** With `CC1=C(/C=C/C(C)=C/C=C/C(C)=C/C(=O)O)C(C)(C)CCC1` [ATRA, all-trans-retinoic acid] as the molecule, how does the “Ratio of Mitotic Cells/Caspase 3 Cells” value (LNCaP tumors [1]) read?
**A.** 1.62 ± 0.19

**Q.** And the “percent of initial tumor size” value (LNCaP tumors [2])?
**A.** 109±5.5%
